# Molecular target: Muscarinic acetylcholine receptor M4 (Rattus norvegicus, UniProt P08485)
# Protein sequences, listed by entry. Tags and fused reporters are not part of them.
# UniProt P08485, whole entry, looked up: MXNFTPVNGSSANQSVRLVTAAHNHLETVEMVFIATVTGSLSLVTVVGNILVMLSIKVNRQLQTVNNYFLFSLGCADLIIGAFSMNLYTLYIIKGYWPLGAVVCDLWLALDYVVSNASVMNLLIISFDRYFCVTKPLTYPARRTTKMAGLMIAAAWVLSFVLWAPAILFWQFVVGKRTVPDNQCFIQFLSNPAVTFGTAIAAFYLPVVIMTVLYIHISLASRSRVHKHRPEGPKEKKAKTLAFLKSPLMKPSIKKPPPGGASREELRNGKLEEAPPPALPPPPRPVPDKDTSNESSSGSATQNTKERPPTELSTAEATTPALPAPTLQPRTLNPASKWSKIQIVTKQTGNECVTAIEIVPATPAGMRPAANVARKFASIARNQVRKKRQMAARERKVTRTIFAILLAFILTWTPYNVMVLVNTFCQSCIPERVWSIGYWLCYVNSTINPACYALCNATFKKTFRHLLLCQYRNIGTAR
# Experiment: Positive allosteric modulator activity at rat M4 receptor expressed in CHO cells co-expressing Gqi5 in presence of EC20 concentration of acetylcholine by calcium mobilization assay
smiles,measurement,value
COc1ccc(CNC(=O)c2sc3nnc(C)c(C)c3c2N)cc1F,EC50,26.6 nM
